In ChEMBL document CHEMBL1773006, “Enone- and chalcone-chloroquinoline hybrid analogues: in silico guided design, synthesis, antiplasmodial activity, in vitro metabolism, and mechanistic studies” (J Med Chem, 2011) one finds Ratio IC50 and t1/2 data, which are given here for two molecules.

A value given as a limit tells only on which side of the number the result lay.

Data set [1] is described as follows: Ratio of compound IC50 to hematin IC50 for inhibition of beta-hematin formation.
A further data set has as its system Liver. The data set can be described thus: Half life in mouse liver microsomes assessed as compound degradation at 1 uM by LC-MS analysis in presence of NADPH and UDPGA. It is filed as ADME, Microsome.

As to `Clc1ccc2c(N3CCNCC3)ccnc2c1`, the Ratio IC50 in data set [1] is greater than 5.
For the molecule `CCN(CC)CCCC(C)Nc1ccnc2cc(Cl)ccc12` (configuration not stated) [CHLOROQUINE], the t1/2 in the data set with Liver was found to be 2.95 h.
